Legend:
[1] = biological target: Bifunctional ligase/repressor BirA (Escherichia coli (strain K12), UniProt P06709); test: Binding affinity to Escherichia coli biotin protein ligase
[2] = biological target: T1, Biotin--protein ligase (Homo sapiens, UniProt P50747); test: Inhibition of human recombinant HLCS using P67 as substrate after 2 hrs relative to vehicle-treated control
T1 sequence (P50747 whole entry): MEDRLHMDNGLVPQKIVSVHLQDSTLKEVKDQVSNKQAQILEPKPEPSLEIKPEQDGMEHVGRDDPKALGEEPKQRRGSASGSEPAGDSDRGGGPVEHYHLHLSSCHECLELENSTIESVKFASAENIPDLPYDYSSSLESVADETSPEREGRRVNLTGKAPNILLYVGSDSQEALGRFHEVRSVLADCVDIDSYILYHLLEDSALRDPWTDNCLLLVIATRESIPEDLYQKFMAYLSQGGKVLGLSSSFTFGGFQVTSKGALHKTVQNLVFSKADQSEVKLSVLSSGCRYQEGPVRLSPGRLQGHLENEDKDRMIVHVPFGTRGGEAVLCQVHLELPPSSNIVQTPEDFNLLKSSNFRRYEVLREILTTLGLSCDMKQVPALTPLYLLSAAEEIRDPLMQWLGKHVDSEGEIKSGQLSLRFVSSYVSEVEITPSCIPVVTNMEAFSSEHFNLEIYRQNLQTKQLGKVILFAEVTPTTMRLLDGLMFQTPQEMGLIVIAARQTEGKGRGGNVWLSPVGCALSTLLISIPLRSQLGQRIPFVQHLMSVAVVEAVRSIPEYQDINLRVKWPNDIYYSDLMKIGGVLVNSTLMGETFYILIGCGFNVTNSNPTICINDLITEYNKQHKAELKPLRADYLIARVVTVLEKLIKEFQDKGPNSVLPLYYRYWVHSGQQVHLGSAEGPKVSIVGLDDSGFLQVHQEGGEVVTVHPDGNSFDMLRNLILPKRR
In short: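 Biotinylated p67 resolved on 16% Tricine gels, blotted, probed with anti-biotin and read by infrared imaging. IC50 from nonlinear One-site-Fit-logIC50; Ki derived from IC50; n=4, mean±SD.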

The chains behind the UniProt entries cited, without tags or fusion partners.
UniProt P06709, whole entry: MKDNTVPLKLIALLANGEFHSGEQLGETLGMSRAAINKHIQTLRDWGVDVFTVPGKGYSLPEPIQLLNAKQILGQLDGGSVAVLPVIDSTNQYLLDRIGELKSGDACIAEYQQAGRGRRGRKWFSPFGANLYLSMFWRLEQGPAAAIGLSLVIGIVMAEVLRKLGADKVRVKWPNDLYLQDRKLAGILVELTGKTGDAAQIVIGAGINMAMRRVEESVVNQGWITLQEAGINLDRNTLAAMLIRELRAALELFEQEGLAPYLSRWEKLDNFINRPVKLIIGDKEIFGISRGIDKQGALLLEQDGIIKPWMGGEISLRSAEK

Nc1ncnc2c1ncn2[C@@H]1O[C@H](COP(=O)(O)OCCCCC[C@@H]2SC[C@@H]3NC(=O)N[C@@H]32)[C@@H](O)[C@H]1O
Kd [1]: 1.5 nM | IC50 [2]: 8800 nM | Ki [2]: 754 nM

Reference: ChEMBL document CHEMBL3352558, “β-Keto and β-hydroxyphosphonate analogs of biotin-5'-AMP are inhibitors of holocarboxylase synthetase” (Bioorg Med Chem Lett, 2014)
